Test results taken from patent EP4825857A1, “TRICYCLIC FUSED HETEROCYCLIC PDE3/4 DUAL INHIBITOR, AND PREPARATION AND USE THEREFOR” (dated 2026).
“And” between values parts separate entries of the source, which are not always exact repeats. Equal values may be shown once.

By UniProt entry, the sequences of proteins in these tests, tags left out. Chains listed by the source or under a name are the forms on record and can include a tag or linker. Residues count along the entry.
UniProt Q08499, 303-809 limits assumed: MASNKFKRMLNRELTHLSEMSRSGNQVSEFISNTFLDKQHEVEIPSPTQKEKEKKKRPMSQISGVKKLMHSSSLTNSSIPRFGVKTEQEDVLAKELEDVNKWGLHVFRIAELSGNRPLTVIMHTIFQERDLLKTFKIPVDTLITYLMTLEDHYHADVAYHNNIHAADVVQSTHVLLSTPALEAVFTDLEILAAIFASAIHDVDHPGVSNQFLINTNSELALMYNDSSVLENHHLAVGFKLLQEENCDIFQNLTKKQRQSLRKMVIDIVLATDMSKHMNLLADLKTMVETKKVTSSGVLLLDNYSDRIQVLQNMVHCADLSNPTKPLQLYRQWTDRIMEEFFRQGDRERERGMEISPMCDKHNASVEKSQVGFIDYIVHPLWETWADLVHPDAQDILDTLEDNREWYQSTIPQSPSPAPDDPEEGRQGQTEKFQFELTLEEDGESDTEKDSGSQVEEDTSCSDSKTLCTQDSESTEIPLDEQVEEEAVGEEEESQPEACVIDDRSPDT
UniProt Q08499, 1-673 with tags or gaps: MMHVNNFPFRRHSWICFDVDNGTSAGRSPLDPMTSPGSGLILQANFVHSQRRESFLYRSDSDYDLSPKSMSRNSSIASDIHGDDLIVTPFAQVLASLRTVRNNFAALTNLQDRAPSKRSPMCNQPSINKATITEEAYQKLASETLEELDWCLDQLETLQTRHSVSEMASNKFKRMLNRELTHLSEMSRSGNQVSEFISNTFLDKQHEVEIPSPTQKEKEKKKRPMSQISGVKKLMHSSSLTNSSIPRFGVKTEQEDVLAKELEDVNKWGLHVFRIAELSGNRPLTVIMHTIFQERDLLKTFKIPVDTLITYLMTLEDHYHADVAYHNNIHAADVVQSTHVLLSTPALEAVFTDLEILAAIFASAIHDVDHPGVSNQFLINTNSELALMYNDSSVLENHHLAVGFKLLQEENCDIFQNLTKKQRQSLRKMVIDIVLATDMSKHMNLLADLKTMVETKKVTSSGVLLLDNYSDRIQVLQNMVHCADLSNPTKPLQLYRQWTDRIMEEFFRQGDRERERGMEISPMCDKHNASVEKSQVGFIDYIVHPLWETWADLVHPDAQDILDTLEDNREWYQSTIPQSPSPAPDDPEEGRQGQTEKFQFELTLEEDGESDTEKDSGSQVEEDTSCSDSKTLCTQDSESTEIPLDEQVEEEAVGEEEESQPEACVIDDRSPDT
UniProt Q14432, whole entry: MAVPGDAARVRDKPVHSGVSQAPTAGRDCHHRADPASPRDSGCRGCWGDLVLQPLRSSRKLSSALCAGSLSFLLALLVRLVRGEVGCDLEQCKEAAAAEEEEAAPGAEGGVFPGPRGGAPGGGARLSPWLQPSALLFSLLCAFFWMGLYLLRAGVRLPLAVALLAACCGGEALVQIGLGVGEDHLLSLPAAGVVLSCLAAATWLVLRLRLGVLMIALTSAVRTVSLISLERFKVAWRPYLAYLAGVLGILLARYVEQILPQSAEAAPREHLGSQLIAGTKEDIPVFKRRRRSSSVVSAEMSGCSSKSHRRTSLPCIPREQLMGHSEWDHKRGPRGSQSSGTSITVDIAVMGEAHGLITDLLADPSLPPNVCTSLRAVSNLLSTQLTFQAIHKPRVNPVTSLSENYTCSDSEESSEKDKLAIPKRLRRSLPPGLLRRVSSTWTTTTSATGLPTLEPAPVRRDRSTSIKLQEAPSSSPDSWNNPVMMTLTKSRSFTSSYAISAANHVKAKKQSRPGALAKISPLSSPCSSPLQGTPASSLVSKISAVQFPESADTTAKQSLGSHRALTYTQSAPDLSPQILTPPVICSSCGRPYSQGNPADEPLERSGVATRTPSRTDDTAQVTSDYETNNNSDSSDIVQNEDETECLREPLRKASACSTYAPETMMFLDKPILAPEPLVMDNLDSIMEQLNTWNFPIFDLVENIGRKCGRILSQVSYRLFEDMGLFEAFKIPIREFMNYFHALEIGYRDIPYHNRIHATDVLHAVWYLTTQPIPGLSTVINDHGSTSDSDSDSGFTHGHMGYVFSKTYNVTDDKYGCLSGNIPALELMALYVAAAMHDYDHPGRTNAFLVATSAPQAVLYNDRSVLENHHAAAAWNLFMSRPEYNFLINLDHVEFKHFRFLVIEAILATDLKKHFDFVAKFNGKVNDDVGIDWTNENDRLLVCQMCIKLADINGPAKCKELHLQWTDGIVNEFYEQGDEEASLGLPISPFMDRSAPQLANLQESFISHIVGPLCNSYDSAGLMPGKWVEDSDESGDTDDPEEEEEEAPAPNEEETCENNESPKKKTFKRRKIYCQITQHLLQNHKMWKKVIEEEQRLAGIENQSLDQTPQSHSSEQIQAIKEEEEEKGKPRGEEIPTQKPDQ
UniProt Q13370, whole entry: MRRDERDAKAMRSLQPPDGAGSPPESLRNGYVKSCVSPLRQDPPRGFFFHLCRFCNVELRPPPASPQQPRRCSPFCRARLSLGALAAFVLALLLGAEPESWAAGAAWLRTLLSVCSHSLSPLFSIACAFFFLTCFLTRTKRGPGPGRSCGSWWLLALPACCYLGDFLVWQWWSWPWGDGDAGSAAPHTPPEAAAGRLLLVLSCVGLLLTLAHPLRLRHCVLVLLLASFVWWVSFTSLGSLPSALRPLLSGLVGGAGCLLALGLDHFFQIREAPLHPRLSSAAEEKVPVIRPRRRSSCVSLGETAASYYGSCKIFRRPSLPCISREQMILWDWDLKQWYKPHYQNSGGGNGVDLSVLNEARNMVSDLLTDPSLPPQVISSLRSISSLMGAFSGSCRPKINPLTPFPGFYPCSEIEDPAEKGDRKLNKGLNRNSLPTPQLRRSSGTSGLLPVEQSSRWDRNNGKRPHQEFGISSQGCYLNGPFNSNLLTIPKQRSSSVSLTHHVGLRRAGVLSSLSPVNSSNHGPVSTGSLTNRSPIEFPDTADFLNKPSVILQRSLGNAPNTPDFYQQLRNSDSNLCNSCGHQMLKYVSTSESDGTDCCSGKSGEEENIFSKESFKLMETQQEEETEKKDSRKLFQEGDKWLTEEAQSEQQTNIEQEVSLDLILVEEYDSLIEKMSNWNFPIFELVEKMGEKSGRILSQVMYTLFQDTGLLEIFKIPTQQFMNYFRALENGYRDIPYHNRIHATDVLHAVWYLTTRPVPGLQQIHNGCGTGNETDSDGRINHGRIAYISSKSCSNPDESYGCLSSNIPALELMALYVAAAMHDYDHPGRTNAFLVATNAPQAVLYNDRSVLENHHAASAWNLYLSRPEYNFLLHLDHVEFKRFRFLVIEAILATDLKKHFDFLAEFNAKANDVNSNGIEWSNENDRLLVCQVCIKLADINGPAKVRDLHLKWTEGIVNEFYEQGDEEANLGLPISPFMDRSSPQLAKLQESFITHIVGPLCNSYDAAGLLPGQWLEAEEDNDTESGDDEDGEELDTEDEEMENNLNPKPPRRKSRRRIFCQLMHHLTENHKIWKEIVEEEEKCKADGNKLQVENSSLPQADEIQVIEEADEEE
UniProt Q07343, 1-564 with tags or gaps: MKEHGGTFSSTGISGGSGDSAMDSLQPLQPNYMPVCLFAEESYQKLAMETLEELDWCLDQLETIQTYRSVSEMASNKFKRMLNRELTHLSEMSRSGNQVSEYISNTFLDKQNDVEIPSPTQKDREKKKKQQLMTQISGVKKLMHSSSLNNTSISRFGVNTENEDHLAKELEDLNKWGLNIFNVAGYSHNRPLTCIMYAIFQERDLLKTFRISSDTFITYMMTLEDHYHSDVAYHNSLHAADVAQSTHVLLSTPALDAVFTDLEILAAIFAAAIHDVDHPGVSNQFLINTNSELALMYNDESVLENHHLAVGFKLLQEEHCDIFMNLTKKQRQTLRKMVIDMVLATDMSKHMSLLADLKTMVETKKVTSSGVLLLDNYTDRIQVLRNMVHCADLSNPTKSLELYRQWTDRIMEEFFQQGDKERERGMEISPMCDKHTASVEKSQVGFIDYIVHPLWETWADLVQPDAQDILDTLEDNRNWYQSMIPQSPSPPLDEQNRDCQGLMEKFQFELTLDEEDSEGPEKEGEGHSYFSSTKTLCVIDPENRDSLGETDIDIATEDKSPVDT
UniProt Q07343, whole entry: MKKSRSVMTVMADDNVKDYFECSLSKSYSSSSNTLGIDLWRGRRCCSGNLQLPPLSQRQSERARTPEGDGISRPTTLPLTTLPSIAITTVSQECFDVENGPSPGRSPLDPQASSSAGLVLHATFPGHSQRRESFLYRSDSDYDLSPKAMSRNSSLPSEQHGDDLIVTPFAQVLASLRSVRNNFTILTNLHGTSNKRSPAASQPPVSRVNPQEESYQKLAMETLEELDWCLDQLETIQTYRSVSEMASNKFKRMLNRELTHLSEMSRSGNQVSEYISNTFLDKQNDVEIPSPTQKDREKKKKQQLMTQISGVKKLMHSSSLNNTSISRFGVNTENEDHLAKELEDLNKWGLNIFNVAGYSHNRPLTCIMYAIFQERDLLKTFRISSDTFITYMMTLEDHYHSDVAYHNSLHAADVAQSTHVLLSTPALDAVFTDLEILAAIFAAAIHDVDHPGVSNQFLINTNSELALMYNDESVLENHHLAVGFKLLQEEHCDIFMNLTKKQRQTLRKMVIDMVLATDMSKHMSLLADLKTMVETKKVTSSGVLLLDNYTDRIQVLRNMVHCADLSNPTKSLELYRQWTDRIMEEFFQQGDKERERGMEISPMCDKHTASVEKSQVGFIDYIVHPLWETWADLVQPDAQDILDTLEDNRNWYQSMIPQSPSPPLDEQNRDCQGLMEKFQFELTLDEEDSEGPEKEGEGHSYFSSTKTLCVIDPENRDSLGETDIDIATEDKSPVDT
UniProt Q14123, whole entry: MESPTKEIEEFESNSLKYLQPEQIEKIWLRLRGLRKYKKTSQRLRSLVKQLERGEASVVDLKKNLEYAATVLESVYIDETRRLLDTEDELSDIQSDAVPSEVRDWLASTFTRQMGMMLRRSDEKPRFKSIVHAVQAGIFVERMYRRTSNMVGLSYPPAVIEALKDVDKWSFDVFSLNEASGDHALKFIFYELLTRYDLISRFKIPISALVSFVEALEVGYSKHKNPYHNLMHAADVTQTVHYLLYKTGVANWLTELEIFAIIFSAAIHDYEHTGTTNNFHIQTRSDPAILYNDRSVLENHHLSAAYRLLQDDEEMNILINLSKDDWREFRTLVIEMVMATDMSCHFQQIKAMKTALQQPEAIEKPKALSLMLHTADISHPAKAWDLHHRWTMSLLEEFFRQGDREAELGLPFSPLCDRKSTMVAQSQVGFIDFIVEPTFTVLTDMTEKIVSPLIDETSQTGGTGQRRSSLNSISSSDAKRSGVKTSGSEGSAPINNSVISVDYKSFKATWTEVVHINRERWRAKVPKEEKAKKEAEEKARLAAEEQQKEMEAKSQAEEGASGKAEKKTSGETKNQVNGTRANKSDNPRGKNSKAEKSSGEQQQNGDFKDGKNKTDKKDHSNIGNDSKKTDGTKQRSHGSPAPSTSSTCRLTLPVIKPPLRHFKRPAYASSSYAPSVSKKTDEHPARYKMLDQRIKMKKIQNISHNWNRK
UniProt P27815, 1-647 with tags or gaps: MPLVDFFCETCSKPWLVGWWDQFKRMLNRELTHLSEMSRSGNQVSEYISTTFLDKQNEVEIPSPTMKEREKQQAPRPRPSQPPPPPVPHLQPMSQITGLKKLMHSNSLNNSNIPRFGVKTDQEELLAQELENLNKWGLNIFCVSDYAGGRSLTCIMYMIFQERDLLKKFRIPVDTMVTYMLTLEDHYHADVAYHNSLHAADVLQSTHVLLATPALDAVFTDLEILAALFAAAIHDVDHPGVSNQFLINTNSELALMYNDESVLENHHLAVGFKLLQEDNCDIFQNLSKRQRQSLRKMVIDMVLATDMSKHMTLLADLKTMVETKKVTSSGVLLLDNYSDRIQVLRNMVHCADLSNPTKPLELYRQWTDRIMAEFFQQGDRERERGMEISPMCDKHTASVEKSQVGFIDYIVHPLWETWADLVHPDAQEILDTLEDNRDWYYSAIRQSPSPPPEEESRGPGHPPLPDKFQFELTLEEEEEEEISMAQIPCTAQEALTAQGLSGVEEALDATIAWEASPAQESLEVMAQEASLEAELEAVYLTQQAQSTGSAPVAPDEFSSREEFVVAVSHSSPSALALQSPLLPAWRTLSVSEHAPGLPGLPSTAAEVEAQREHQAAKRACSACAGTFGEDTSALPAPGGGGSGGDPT
UniProt Q9NP56, whole entry: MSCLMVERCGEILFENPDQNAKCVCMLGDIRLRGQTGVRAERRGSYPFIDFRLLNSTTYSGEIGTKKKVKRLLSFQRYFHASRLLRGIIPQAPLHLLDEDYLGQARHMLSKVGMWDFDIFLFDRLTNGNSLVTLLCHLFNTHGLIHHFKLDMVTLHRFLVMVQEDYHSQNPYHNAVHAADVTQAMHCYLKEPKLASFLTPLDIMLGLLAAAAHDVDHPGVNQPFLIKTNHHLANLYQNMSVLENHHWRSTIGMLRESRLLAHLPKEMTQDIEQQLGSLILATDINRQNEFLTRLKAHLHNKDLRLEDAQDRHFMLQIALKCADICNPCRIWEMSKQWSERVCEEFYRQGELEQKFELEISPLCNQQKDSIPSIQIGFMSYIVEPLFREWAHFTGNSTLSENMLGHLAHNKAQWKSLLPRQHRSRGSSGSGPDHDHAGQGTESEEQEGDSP

Legend:
PDE4D2 = PDE4D2 (Homo sapiens, UniProt Q08499); assay: PDE enzyme activity inhibition assay (fluorescence polarization, IMAP); conditions: read-out: PDE4D2; FP assay, Table 4
Description: (§1) The inhibitory activity of the compounds of the Examples against PDE enzymes was evaluated using a fluorescence polarization (FP) assay. RPL-554, the compound disclosed in Example 1 of CN100415743C, was used as the positive control. [drawing 182]
(§2) In a reaction buffer, i.e., 1× IMAP Reaction Buffer containing 0.1% BSA and supplemented with 1 mM DTT, a PDE enzyme solution and a substrate solution (FAM-cyclic AMP/cyclic AMP) were prepared. The positive control was prepared at an initial concentration of 1/10 µM for the PDE assay and was diluted 3-fold, with a 10+0 dose design. Using the acoustic liquid handling technology (Echo 655), 0.05 µL of each compound in 100% DMSO was transferred into a 384-well plate (Corning 4514), followed by centrifugation at 1,000 rpm for 1 min. Then, 2.5 µL of the PDE enzyme solution was transferred into the 384-well reaction plate, followed by centrifugation at 1,000 rpm for 1 min and incubation at 25 °C for 10 min. Subsequently, 2.5 µL of the substrate solution was transferred into the 384-well reaction plate, followed by centrifugation at 1,000 rpm for 1 min and incubation at 25 °C for 60 min. Then, 15 µL of a binding reagent mixture was transferred into the 384-well reaction plate, followed by centrifugation at 1,000 rpm for 1 min and incubation at 25 °C for 60 min. Finally, the FP signal was measured using a BMG PHERAstar FSX plate reader. IC50 values and nonlinear regression curve fitting were obtained using GraphPad Prism software.
(§3) The inhibitory activities of the compounds against PDE enzymes were evaluated using the FP method, with RPL-554 and compound D7 as control compounds. The detailed test method was the same as that described in PDE Enzyme Activity Inhibition Assay I. The structural formulae of RPL-554 and compound D7 are shown below. [drawing 183]

PDE3A = PDE3A (Homo sapiens, UniProt Q14432); assay: as above; conditions: read-out: PDE3A; FP assay, Table 4
Description: as §1, §2, §3

PDE3B = PDE3B (Homo sapiens, UniProt Q13370); assay: as above; conditions: read-out: PDE3B; FP assay, Table 4
Description: as §1, §2, §3

PDE4B2 = PDE4B2 (Homo sapiens, UniProt Q07343); assay: as above; conditions: read-out: PDE4B2; FP assay, Table 4
Description: as §1, §2, §3

[1] = tested on: Nebulized Acetylcholine-Induced Airway Constriction in Mice; assay: Nebulized acetylcholine-induced airway constriction in mice (airway resistance RL)
Description: Preparation of test compound: the test compounds were weighed as pure compounds without considering impurities due to the high purity of the test compounds. The test compound was prepared at a concentration of 10 mg/mL, using a pH 3.2 citric acid-disodium hydrogen phosphate buffer containing 25% DMSO as the solvent.
Administration of test compounds: The test compounds were administered to mice by oronasal nebulization using a NAM system from DSI. Each mouse received a total volume of 400 µL, delivered in two nebulization sessions of 5 min each. The model group received an equal volume of vehicle by nebulization.
Newly received experimental animals were quarantined for 3 days and grouped as described above. Airway nebulized administration was performed using the NAM system, with the nebulization procedure consisting of 5-min nebulization (200 µL), a 3-min interval, and another 5-min nebulization (200 µL). Approximately 0.5 h after completion of nebulized administration, acetylcholine was nebulized using the RC system (15 mg/mL, 20 µL, 30 s, prepared in 0.9% normal saline) to challenge the animals to induce airway constriction, and changes in airway resistance (RL) were simultaneously measured using the RC instrument.

PDE9A2 = PDE9A2 (Homo sapiens, UniProt O76083); assay: PDE enzyme activity inhibition assay II (fluorescence polarization); conditions: read-out: IC50, nM PDE9A2; FP assay II, Table 5
Description: as §2, §3

PDE1C = PDE1C (Homo sapiens, UniProt Q14123); assay: as above; conditions: read-out: IC50, nM PDE1C; FP assay II, Table 5
Description: as §2, §3

PDE4D3 = PDE4D3 (Homo sapiens, UniProt Q08499); assay: as above; conditions: read-out: IC50, nM PDE4D3; FP assay II, Table 5
Description: as §2, §3

PDE6C = PDE6C (Homo sapiens, UniProt P51160); assay: as above; conditions: read-out: IC50, nM PDE6C; FP assay II, Table 5
Description: as §2, §3

PDE4C1 = PDE4C1 (Homo sapiens, UniProt Q08493); assay: as above; conditions: read-out: IC50, nM PDE4C1; FP assay II, Table 5
Description: as §2, §3

PDE4A1 = PDE4A1 (Homo sapiens, UniProt P27815); assay: as above; conditions: read-out: IC50, nM PDE4A1; FP assay II, Table 5
Description: as §2, §3

PDE8A1 = PDE8A1 (Homo sapiens, UniProt O60658); assay: as above; conditions: read-out: IC50, nM PDE8A1; FP assay II, Table 5
Description: as §2, §3

PDE1B = PDE1B (Homo sapiens, UniProt Q01064); assay: as above; conditions: read-out: IC50, nM PDE1B; FP assay II, Table 5
Description: as §2, §3

PDE2A1 = PDE2A1 (Homo sapiens, UniProt O00408); assay: as above; conditions: read-out: IC50, nM PDE2A1; FP assay II, Table 5
Description: as §2, §3

PDE1A = PDE1A (Homo sapiens, UniProt P54750); assay: as above; conditions: read-out: IC50, nM PDE1A; FP assay II, Table 5
Description: as §2, §3

PDE5A1 = PDE5A1 (Homo sapiens, UniProt O76074); assay: as above; conditions: read-out: IC50, nM PDE5A1; FP assay II, Table 5
Description: as §2, §3

PDE4B1 = PDE4B1 (Homo sapiens, UniProt Q07343); assay: as above; conditions: read-out: IC50, nM PDE4B1; FP assay II, Table 5
Description: as §2, §3

PDE7B = PDE7B (Homo sapiens, UniProt Q9NP56); assay: as above; conditions: read-out: IC50, nM PDE7B; FP assay II, Table 5
Description: as §2, §3

PDE11A4 = PDE11A4 (Homo sapiens, UniProt Q9HCR9); assay: as above; conditions: read-out: IC50, nM PDE11A4; FP assay II, Table 5
Description: as §2, §3

PDE10A2 = PDE10A2 (Homo sapiens, UniProt Q9Y233); assay: as above; conditions: read-out: IC50, nM PDE10A2; FP assay II, Table 5
Description: as §2, §3

PDE7A1 = PDE7A1 (Homo sapiens, UniProt Q13946); assay: as above; conditions: read-out: IC50, nM PDE7A1; FP assay II, Table 5
Description: as §2, §3

PDE10A1 = PDE10A1 (Homo sapiens, UniProt Q9Y233); assay: as above; conditions: read-out: IC50, nM PDE10A1; FP assay II, Table 5
Description: as §2, §3

Row | SMILES | IC50 (PDE4D2) | IC50 (PDE3A) | IC50 (PDE3B) | IC50 (PDE4B2) | further results
1 | COc1cc2c(cc1OC)-c1cc(N(c3c(C)cc(C)cc3C)C(C)CNC(N)=O)nc(=O)n1CC2 (single isomer, unassigned) [Compound 1-1] | 61.4 nM | 0.0996 nM | 0.0698 nM | 75.4 nM | Baseline value ([1]; airway resistance (RL), single animal, about 0.5 h after nebulized administration (14 mg/mL, 400 µL), before ACh challenge): 1.0 and 0.9 and 1.1; Inhibition (%) ([1]; inhibition of ACh challenge-induced increase of airway resistance, compound 14 mg/mL nebulized): 24.5%; Mean ([1]; mean of challenge-induced increase of airway resistance, 3 animals, compound 14 mg/mL): 8.0; IC50 (PDE9A2): > 10000 nM; IC50 (PDE1C): 1770 nM; IC50 (PDE4D3): 252 nM; IC50 (PDE6C): 6210 nM; IC50 (PDE4C1): 2160 nM; IC50 (PDE4A1): 158 nM; IC50 (PDE8A1): 1800 nM; IC50 (PDE1B): 616 nM; IC50 (PDE2A1): 1490 nM; IC50 (PDE1A): 4030 nM; IC50 (PDE5A1): 5820 nM; IC50 (PDE4B1): 820 nM; IC50 (PDE7B): > 10000 nM; IC50 (PDE11A4): 3070 nM; IC50 (PDE10A2): 40.3 nM; IC50 (PDE7A1): > 10000 nM; IC50 (PDE10A1): 59.9 nM
2 | COc1cc2c(cc1OC)-c1cc(N(c3c(C)cc(C)cc3C)C3CC(NC(N)=O)C3)nc(=O)n1CC2 (single isomer, unassigned) [Compound 4-2] | 517 nM | > 40 nM | > 40 nM | 425 nM | 
3 | COc1cc2c(cc1OC)-c1cc(N(c3c(C)cc(C)cc3C)C(C)CNC(=O)c3cc(C)ccn3)nc(=O)n1CC2 (stereo not drawn) | 2.86 nM | 0.125 nM | 0.135 nM | 4.9 nM | 
4 | COc1cc2c(cc1OC)-c1cc(N(c3c(C)cc(C)cc3C)C(C)CNC(=O)c3ccc(C)cn3)nc(=O)n1CC2 (stereo not drawn) | 5.75 nM | 0.107 nM | 0.108 nM | 6.3 nM | 
5 | COc1cc2c(cc1OC)-c1cc(N(c3c(C)cc(C)cc3C)C3CC(NC(N)=O)C3)nc(=O)n1CC2 (single isomer, unassigned) [Compound 4-1] | 490 nM | > 40 nM | > 40 nM | 469 nM | 
6 | COc1cc2c(cc1OC)-c1cc(N(c3c(C(C)C)cc(C)cc3C(C)C)C(C)CNC(N)=O)nc(=O)n1CC2 (single isomer, unassigned) [Compound 23-1] | 3.87 nM | 3.89 nM | 6.94 nM | 11.6 nM | 
7 | COc1cc2c(cc1OC)-c1cc(N(c3c(C)cc(C)cc3C)C(C)CNC(=O)c3cnc[nH]3)nc(=O)n1CC2 (single isomer, unassigned) [Compound 13-2] | 120 nM | 0.0661 nM | 0.0768 nM | 139 nM | 
